Source: ChEMBL document CHEMBL1136574, “Organic phenyl arsonic acid compounds with potent antileukemic activity” (Bioorg Med Chem Lett, 2003)

Tests used:
NALM-6 = assay: Antileukemic activity against human leukemia NALM-6 (B-lineage ALL) cell line; assay type: functional, cell-based
Method in brief: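 Cells treated with compounds in 96-well plates, incubated 48 h at 37 °C; cytotoxicity read by MTT assay; IC50 values calculated by curve fitting.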

MOLT-3 = assay: Antileukemic activity against human leukemia MOLT-3(T-lineage ALL) cell line

SMILES	IC50 (NALM-6) [µM]	IC50 (MOLT-3) [µM]
O=[As](O)(O)c1ccc(Nc2[nH]cnc3ncnc2-3)cc1	> 100	> 100
Nc1ccc(/N=N/c2ccc([As](=O)(O)O)cc2)cc1	> 100	
O=[As](O)(O)c1ccccc1Nc1[nH]cnc2ncnc1-2	> 100	> 100
Nc1ccccc1[As](=O)(O)O	> 100	
